Laboratory results from PubChem BioAssay (Tox21).
Values joined by “and” are separate entries in the source; they are usually repeats but may differ in a detail not shown here. Identical values can stand only once. The entries are a selection whose mix differs from that of the whole data set. Records with an inconclusive call do not appear. Active and inactive are the calls of the source. The call rests on the fitted dose curve; in most records, active means well fitted cell-killing curve with a large enough effect in the repeat runs; inconclusive means weak or mixed curves, or effect the other way; inactive means flat fitted curve, though single readings scatter.

experiment: Nuclear factor erythroid 2-related factor 2/antioxidant responsive element (Nrf2/ARE) small molecule agonists: qHTS cell viability counter screen in human keratinocytes (AID 1919968); conditions: KeratinoSens HaCaT ARE cells viability, CellTiter-Fluor, 24 h; at 42.5 µM (top of the series); further: nearly all actives have a fitted effect of over 55% in size
Excerpt: U.S. Tox21 Program National Center for Advancing Translational Sciences [NCATS] Division of Preclinical Innovation [DPI] U.S. Environmental Protection Agency [EPA] National Institutes of Environmental Health Sciences [NIEHS] National Toxicology Program [NTP] U.S. Food and Drug Administration [FDA] Tox21 Assay Overview: Oxidative stress has been implicated in the pathogenesis of a variety of diseases ranging from cancer to neurodegeneration. The antioxidant response element (ARE) signaling pathway plays an important role in the amelioration of oxidative stress. The KeratinoSens (Givaudan, Switzerland) is an in vitro test method which quantifies luciferase induction as a measure of activation of Keap1-Nrf2-antioxidationt/electrophile response element (ARE) dependant pathway in HaCaT human keratinocytes stably transfected with a selectable plasmid. The KeratinoSens assay is a cell-based assay with a reporter cell line to detect potential skin sensitizers by their ability to induce the Nrf2/ARE-response. The activation of the report gene under culture conditions can be detected by ONE-Glo Luciferase Assay System (Promega, Madison, WI). This cell line has been used to screen the Tox21 10K compound library to identify agonists that induce oxidative stress. The cytotoxicity of the Tox21 compound library against the KS-ARE cell line was tested in parallel by measuring the cell viability using CellTiter- Fluor assay system (Promega, Madison, WI) in the same wells.
Tox21 Assay Protocol Summary: HaCaT derived cell line KeratinoSens were dispensed at 1,500 cells/5uL/well in 1536-well white wall/solid bottom plates using a Multidrop Combi (ThermoFisher Scientific, Waltham, MA) dispenser. After the assay plates were incubated at 37 C/5% CO2 for 5 h, 23 nL of compounds dissolved in DMSO, positive controls or DMSO only was transferred to the assay plate by a pintool workstation (Kalypsys, San Diego, CA). The plates were incubated at 37 C/5% CO2 for 23 h, followed by addition of 1uL/well of CellTiter-Fluor reagent into the assay plates using a Flying Reagent Dispenser (Aurora Discovery, San Diego, CA) for cell viability readout that measures cytotoxicity. After 1 h incubation at 37 C/5% CO2 the fluorescence intensity was measured using a ViewLux (PerkinElmer, Shelton, CT) plate reader.
On the % scale 0 is the no-effect control and ±100 the full control effect.

SMILES | activity change, negative = cytotoxicity
OCCSCCO | inactive: -0.248%

same assay, conditions: KeratinoSens HaCaT ARE cells viability, CellTiter-Fluor, 24 h; at 92.4 µM (top of the series)

SMILES | activity change, negative = cytotoxicity
OCCSCCO | inactive: -1.4%

same assay, conditions: KeratinoSens HaCaT ARE cells viability, CellTiter-Fluor, 24 h; at 92.4 µM (top of the series) unless noted

SMILES | activity change, negative = cytotoxicity
Cc1ccc([N+](=O)[O-])cc1[N+](=O)[O-] | inactive: 0.67% and inactive: -1.39%
N=C(N)N[N+](=O)[O-] | inactive: 1.9%
[NH4+].[O-][Cl+3]([O-])([O-])[O-] | inactive: 2.11% and inactive: -0.316%
C/C1=C2N=C(/C=C3N=C(/C(C)=C4\[N-][C@@](C)([C@@H]5N=C1[C@](C)(CCC(=O)NC[C@@H](C)OP(=O)([O-])O[C@H]1[C@@H](O)[C@@H](n6cnc7cc(C)c(C)cc76)O[C@@H]1CO)[C@H]5CC(N)=O)[C@@](C)(CC(N)=O)[C@@H]4CCC(N)=O)[C@@](C)(CC(N)=O)[C@@H]\3CCC(N)=O)C(C)(C)[C@@H]/2CCC(N)=O.[C-]#N.[Co+3] | inactive: -19.3% [at 42.5 µM]
Cc1cccc([N+](=O)[O-])c1[N+](=O)[O-] | inactive: 11.7% [at 42.5 µM]
O=[N+]([O-])[O-].[NH4+] | inactive: 0.803% and inactive: -4.96%
CP(=O)(O)OCCC[Si](O)(O)O | inactive: -0.548%
CCOP(=O)(CC)OCC | inactive: -2.06%
O=[N+]([O-])c1cccc([N+](=O)[O-])c1 | inactive: 0%
Cc1c([N+](=O)[O-])cccc1[N+](=O)[O-] | inactive: 1.95% and inactive: 7.53%
O=[N+]([O-])OCC(CO[N+](=O)[O-])(CO[N+](=O)[O-])CO[N+](=O)[O-] | inactive: 1.72%
CC(C)N(CCO)C(C)C | inactive: 2.35%
CN(C)CCCl | inactive: -3.76%
CCN(CC)CCCl | inactive: -6.47%
COc1ccc([N+](=O)[O-])cc1[N+](=O)[O-] | inactive: 4.97%
CCOP(=O)(CC)Oc1ccc([N+](=O)[O-])cc1 (stereo unspecified) | inactive: 7.54% [at 42.5 µM]
N#CBr | inactive: -3.33%
Cc1ccc([N+](=O)[O-])c([N+](=O)[O-])c1 | inactive: 1.72%
COP(C)(=O)OC | inactive: 3.02% and inactive: 0.137%
